Results from patent EP1063290A1, “NOVEL DICARBONYLREDUCTASE AND GENE ENCODING THE SAME” (TAISHO PHARMACEUTICAL CO., LTD, priority 1998, dated 1999).

Chains of the proteins cited; added tags and fusions are not shown. Lines headed by an entry give the natural chain unless they say otherwise; changes in a name come on top.
UniProt Q91X52: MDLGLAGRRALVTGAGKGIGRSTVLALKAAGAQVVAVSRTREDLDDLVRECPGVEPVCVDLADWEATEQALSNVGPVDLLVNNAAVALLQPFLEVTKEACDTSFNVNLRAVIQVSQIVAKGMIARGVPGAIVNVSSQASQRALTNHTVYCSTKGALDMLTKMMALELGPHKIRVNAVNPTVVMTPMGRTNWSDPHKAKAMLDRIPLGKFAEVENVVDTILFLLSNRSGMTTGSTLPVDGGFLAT

Biological target: protein DCR1 (Mus musculus, UniProt Q91X52)
Experiment: Dicarbonyl reductase activity assay: substrate specificity and rate constants (NAD(P)H oxidation at 340 nm)
Conditions: substrate concentration 1,000 μM; against a reference of 100 for diacetyl
Method: The enzyme activity assay method is not particularly restricted, and it may be based on the activity assay method for mouse carbonyl reductase (CR) (Eur. J. Biochem. 22, 381-387(1995)). The enzyme used here was an expressed recombinant enzyme. • (a) Substrate specificity: In order to determine the substrate specificity, there may be used a hydrocarbon system including various ketone, aldehyde and ester groups, or an aromatic compound.
• (1) This was assayed under the following conditions. The reaction mixture (total: 2.0 ml) comprised an 80 mM potassium phosphate solution (pH 7.0 or 6.0), 0.1 mM NADPH or NADH and a carbonyl substrate or enzyme (50 µl) (10.1 µg or 3.7 µg of glomerin B). The oxidation rate for NAD(P)H was measured at 340 nm.

O=C1CCc2ccccc21 [1-Indanone]
RA (%) relative activity: 0%
